{"source": "paper PMC8333620", "about": "“Novel Tl(III) complexes containing pyridine-2,6-dicarboxylate derivatives with selective anticancer activity through inducing mitochondria-mediated apoptosis in A375 cells” (Scientific Reports, 2021)", "test_system": "A375 (a human melanoma) cell line", "assay": "MTT cytotoxicity assay, A375", "type": "cell-based", "conditions": "48 h, concentration not given", "method": "In this study, A375 (a human melanoma), HT29 (a human colon adenocarcinoma), and HFF (a human foreskin fibroblast) cell lines were provided from the Pasteur Institute (Iran). […] 10 mM stock solutions of compounds were prepared in DMSO and diluted in a fresh medium for use. The final concentration of DMSO never exceeded 0.1% (v/v). […] Then the medium was replaced with the respective medium containing ligands or Tl(III) complexes at different concentrations and incubated for 48 h. 10 μL of MTT was added and the medium was removed after 4 h of incubation. Finally, the violet crystal was solubilized in 100 μL DMSO and the absorbance was measured at 570 nm. IC50 value was measured by the standard method. The evaluations were carried out in triplicate[21],[23]."}
{"smiles": "O=C1[O][Pt]2([NH][C@@H]3CCCC[C@H]3[NH]2)[O]C1=O", "note": "[Oxaliplatin, reference compound]", "values": [{"measurement": "Viability inhibition, A375", "result": 46.79, "unit": "%"}]}
